Source: PubChem BioAssay
Cneo AK release = Cryptococcus neoformans cell lysis inducers, primary screen, AK release luminescence, single concentration; hit rate 0.2% among 360,000; lysis activity, % at 15 µM; C. neoformans lysis, adenylate kinase release luminescence, 4 h; normalised: neutral wells 0, clomiphene wells 100; AID 651654, 2012;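 active = mean lysis activity across replicates of at least 80%, whatever share of replicates individually reach that level; inactive = mean lysis activity below 80%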
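Assay system: Cryptococcus neoformans yeast cells / Dosing: single-point compound dose / Timing: 4 h at 37 °C static, read 1 h later / Measured by: luminescence of released adenylate kinase using an AK detection reagent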
Yeast UUG start = modulators of start codon recognition fidelity in yeast; S. cerevisiae UUG-firefly luciferase reporter, luminescence/redox ratio; AID 602363; 350,000 tested, 0.13% active; activity score, % at 18.7 µM;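 active = replicate mean at a twofold rise or more, about +100% in these data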;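 also: firefly luciferase made from a UUG start codon reports start codon fidelity; reporter light over untreated wells divided by growth signal over untreated wells; some hits fall short of that in this replicate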
ERp5 inh = inhibitors of ERp5-driven insulin aggregation, primary screen, biochemical, turbidity, absorbance 650 nm, single point. Protein disulfide-isomerase A6 (Homo sapiens), Q15084. 90 min. inhibition, % at 9.99 µM. hit rate 0.05% among 350,000. AID 651711, 2012;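 active = mean replicate inhibition above about 25%, with every replicate also reaching it, limit read from the data, passing the limit was not always enough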
PDI turbidity = inhibitors of human PDI, primary screen, biochemical, turbidity, single point, plate reader | Protein disulfide-isomerase (Homo sapiens), P07237 | PDI insulin aggregation turbidity, A650, 90 min | inhibition, % at 10 µM | hit rate 0.052% among 350,000 | AID 588391, 2011;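 active = mean inhibition across replicates of 30% or more, whatever share of single replicates reach that level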
* marks the source's active call; other numbers are inactive results; x = not tested or not shown; ! = not active in a repeat. A selection: hits, their analogues and other compounds. The true share with any hit is near 0.34%.

The chains behind the UniProt entries cited, without tags or fusion partners.
Protein disulfide-isomerase A6 (Homo sapiens), Q15084, UniProt Q15084, whole entry, looked up: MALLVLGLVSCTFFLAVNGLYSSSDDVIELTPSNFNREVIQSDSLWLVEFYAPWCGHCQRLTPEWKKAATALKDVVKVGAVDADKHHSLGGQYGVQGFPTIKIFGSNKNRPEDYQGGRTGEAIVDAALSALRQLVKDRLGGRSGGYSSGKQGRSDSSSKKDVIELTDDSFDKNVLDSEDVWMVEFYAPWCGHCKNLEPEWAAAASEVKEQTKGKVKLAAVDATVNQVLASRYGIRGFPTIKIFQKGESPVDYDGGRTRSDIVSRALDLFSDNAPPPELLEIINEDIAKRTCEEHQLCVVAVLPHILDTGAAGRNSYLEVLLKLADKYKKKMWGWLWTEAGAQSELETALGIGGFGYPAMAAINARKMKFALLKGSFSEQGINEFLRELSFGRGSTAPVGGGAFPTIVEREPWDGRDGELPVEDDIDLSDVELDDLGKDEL

Short forms: A = Cneo AK release; B = Yeast UUG start; C = ERp5 inh; D = PDI turbidity
Cc1cccc(-c2ccc([C@H]3[C@H](CO)N4CCCCN(C(=O)c5ccc6c(c5)OCO6)C[C@@H]34)cc2)c1
  A: 91*; B: 36; C: -3; D: x
O=C(c1ccc2c(c1)OCO2)N1CCCCN2[C@H](C1)[C@@H](c1ccc(-c3ccccc3)cc1)[C@@H]2CO
  A: 6; B: 10; C: 1; D: x
O=C(C[C@@H]1C=C[C@H](NC(=O)c2ccc(F)cc2)[C@H](CO)O1)NCc1ccncn1
  A: 1; B: -2; C: 2; D: x
Cc1cccc(-c2ccc([C@@H]3[C@H](CO)N4CCCCN(C(=O)NC(C)C)C[C@@H]34)cc2)c1
  A: -2; B: -5; C: -4; D: x
C[C@H]1CN([C@@H](C)CO)C(=O)CCCn2cc(nn2)CO[C@@H]1CN(C)Cc1ccc(C(F)(F)F)cc1
  A: 82*; B: x; C: -2; D: x
COC(=O)N(C)C[C@H]1OCc2cn(nn2)CCCC(=O)N([C@H](C)CO)C[C@@H]1C
  A: 100*; B: 7; C: -2; D: x
C[C@@H]1CN([C@@H](C)CO)C(=O)CCCn2cc(nn2)CO[C@@H]1CN(C)Cc1ccc2c(c1)OCO2
  A: 114*; B: 9; C: 0; D: x
C[C@H](CO)N1C[C@H](C)[C@@H](CN(C)Cc2ccc3c(c2)OCO3)OCc2cn(nn2)CCCC1=O
  A: -15; B: x; C: -5; D: x
C[C@@H]1CN([C@@H](C)CO)C(=O)CCCn2cc(nn2)CO[C@H]1CN(C)Cc1ccc(C(F)(F)F)cc1
  A: 4; B: -12; C: 4; D: x
CC(C)OC(=O)N(C)C[C@H]1OCc2cn(nn2)CCCC(=O)N([C@@H](C)CO)C[C@@H]1C
  A: 4; B: 1; C: 1; D: x
C[C@@H]1CN([C@@H](C)CO)C(=O)CCCn2nncc2CO[C@H]1CN(C)Cc1cccc(C(F)(F)F)c1
  A: 120*!; B: -2; C: 0; D: 2
CCC(=O)Nc1ccc2c(c1)C(=O)N(C)C[C@@H](OC)[C@@H](C)CN(C(=O)c1cnccn1)[C@@H](C)CO2
  A: 0; B: 17; C: 3; D: x
CCCNC(=O)N1CC2(CCN(CC3CC3)CC2)c2c(n(C)c3cc(OC)ccc23)[C@H]1CO
  A: x; B: x; C: -4; D: x
COc1ccc(NC(=O)Nc2cccc3c2O[C@@H](CN(C)C)[C@@H](C)CN([C@@H](C)CO)C3=O)cc1
  A: -2; B: -6; C: 2; D: x
CN1C(=O)NC(c2ccccc2)C2=C1CN(c1cccc(C(F)(F)F)c1)C2=O (stereo unspecified)
  A: -2; B: -7; C: x; D: 31*
C[C@@H]1CN([C@H](C)CO)C(=O)Cc2cc(NC(=O)CCCCCC(=O)Nc3ccccc3N)ccc2O[C@@H]1CN(C)S(=O)(=O)c1ccc(F)cc1
  A: -1; B: 1; C: 2; D: x
C[C@@H]1CN([C@H](C)CO)C(=O)c2cc(NC(=O)CCCCCC(=O)Nc3ccccc3N)ccc2O[C@H]1CN(C)S(C)(=O)=O
  A: 4; B: -9; C: -8; D: x
CN(C)C(=O)c1ccc(-c2ccc([C@H]3[C@H](CO)N4CCCCN(CCC(F)(F)F)C[C@@H]34)cc2)cc1
  A: 96*; B: 15; C: 0; D: x
CN(C)C(=O)c1ccc(-c2ccc([C@H]3[C@@H](CO)N4CCCCN(CCC(F)(F)F)C[C@@H]34)cc2)cc1
  A: 2; B: 4; C: -4; D: x
CC(C)NC(=O)Nc1ccc2c(c1)CC(=O)N([C@@H](C)CO)C[C@H](C)[C@H](CN(C)Cc1ccc3c(c1)OCO3)O2
  A: 107*; B: x; C: 3; D: x
CNC[C@H]1Oc2ccc(NC(=O)Cc3cn(C)c4ccccc34)cc2CC(=O)N([C@@H](C)CO)C[C@H]1C
  A: 83*!; B: 16; C: 2; D: 8
C[C@H]1CN([C@@H](C)CO)C(=O)Cc2cc(NC(=O)Nc3ccccc3)ccc2O[C@@H]1CN(C)C(=O)Nc1ccc2c(c1)OCO2
  A: 101*; B: 43; C: -4; D: x
CNC[C@@H]1Oc2ccc(NC(=O)Cc3cn(C)c4ccccc34)cc2CC(=O)N([C@H](C)CO)C[C@@H]1C
  A: -1; B: 6; C: 2; D: x
Cc1noc(C)c1NC(=O)N(C)C[C@H]1OCCCC[C@@H](C)Oc2ccc(NC(=O)c3ccccc3)cc2C(=O)N([C@H](C)CO)C[C@H]1C
  A: 19; B: 15; C: 1; D: x
C/C=C(\C)C(=O)NCCN1C2=NC[C@@H](Cc3ccccc3)N2C[C@H]1Cc1ccc(O)cc1
  A: 9; B: -7; C: 6; D: 6
COc1ccc(C[C@H]2CN3C(=NC[C@@H]3Cc3ccc(O)cc3)N2C[C@H](C)NC(=O)CCC2CCCCC2)cc1
  A: 1; B: -10; C: -5; D: 18
COc1ccc(C[C@@H]2CN3C(=NC[C@@H]3Cc3ccc(O)cc3)N2C[C@H](C)NC(=O)CCC2CCCCC2)cc1
  A: 0; B: -15; C: x; D: 40*
C/C=C(\C)C(=O)NCCN1C2=NC[C@H](Cc3ccc(O)cc3)N2C[C@H]1Cc1ccc(O)cc1
  A: -2; B: -17; C: 1; D: 45*
O=C(Cc1ccccc1)N[C@@H]1CC[C@@H](CC(=O)N2CCOCC2)O[C@@H]1CO
  A: 13; B: 14; C: 1; D: x
COc1ccc(C2CC(C(F)(F)F)n3nc(C(=O)O)c(Cl)c3N2)cc1OC (stereo unspecified)
  A: 1; B: 335*; C: x; D: 11

Printed as active in Yeast UUG start, among the entries above:
Molecule	Yeast UUG start	ERp5 inh	PDI turbidity
COc1ccc(C2CC(C(F)(F)F)n3nc(C(=O)O)c(Cl)c3N2)cc1OC (stereo unspecified)	335*	x	11

Following part
Short forms: A = Cneo AK release; B = Yeast UUG start; C = ERp5 inh; D = PDI turbidity
COc1ccc(C2CC(C(F)(F)F)n3nc(CO)c(Cl)c3N2)cc1OC (stereo unspecified)
  A: 0; B: -8; C: x; D: 8
COc1ccc(Oc2ccc(/C=C/C(=O)c3ccc(O)cc3)cc2[N+](=O)[O-])cc1
  A: x; B: x; C: -48; D: 99*
O=C(/C=C/c1ccc(O)c([N+](=O)[O-])c1)c1ccc2ccccc2c1
  A: -1; B: -7; C: 1; D: 4
COCC(=O)N1CC(=O)N2[C@H](C1)[C@H](c1ccc(-c3cccnc3)cc1)[C@@H]2CO
  A: x; B: x; C: 2; D: x
C[C@@H]1CN([C@@H](C)CO)C(=O)c2cc(C3=CCCCC3)cnc2O[C@H]1CN(C)C(=O)Cc1cccnc1
  A: 110*; B: 5; C: 0; D: x
C[C@@H]1CN([C@@H](C)CO)C(=O)c2cc(C#CC3(O)CCCC3)cnc2O[C@H]1CN(C)C(=O)Cc1cccnc1
  A: 3; B: 8; C: 28*; D: x
CCC1(CC)NC(=O)N(CC(=O)OC(C)C(=O)Nc2ccc(NC(C)=O)cc2)C1=O (stereo unspecified)
  A: 2; B: -12; C: 28*; D: 0
CCC1(CC)NC(=O)N(CC(=O)OC(C)C(=O)Nc2ccc(S(N)(=O)=O)cc2)C1=O (stereo unspecified)
  A: 0; B: -4; C: 9; D: -5
CC(=O)C1=C(O)C(=O)N(CCc2c[nH]c3ccccc23)C1c1ccccc1 (stereo unspecified)
  A: x; B: x; C: -7; D: 21
CC(=O)C1=C(O)C(=O)N(CCc2c[nH]c3ccccc23)C1c1ccc(O)cc1 (stereo unspecified)
  A: x; B: x; C: x; D: 46*
CC=Cc1ccc2n(c1=O)C[C@@H]1[C@@H](CO)[C@H](C(=O)NCc3ccc4c(c3)OCO4)[C@H]2N1C(=O)COC (mixture of isomers)
  A: -3; B: x; C: 4; D: x
CC=Cc1ccc2n(c1=O)C[C@H]1[C@H](CO)[C@@H](C(=O)NCc3ccc4c(c3)OCO4)[C@@H]2N1C(=O)C1CC1 (mixture of isomers)
  A: 104*; B: x; C: -8; D: x

Profiles from above. Order of screens: Cneo AK release, Yeast UUG start, ERp5 inh, PDI turbidity
Results for `COc1ccc(C[C@@H]2CN3C(=NC[C@@H]3Cc3ccc(O)cc3)N2C[C@H](C)NC(=O)CCC2CCCCC2)cc1` = 0, -15, x, 40*
Results for `COC(=O)N(C)C[C@H]1OCc2cn(nn2)CCCC(=O)N([C@H](C)CO)C[C@@H]1C` = 100*, 7, -2, x
